{
  "source": "patent US6964857B2",
  "about": "“Measuring indigenous photosynthetic organisms to detect chemical warefare agents in water” (dated 2005)",
  "system": "naturally occurring algae in the river water",
  "assay": "Fluorescence induction curves of naturally occurring algae in Clinch River water (Walz XE-PAM fluorometer)",
  "key": {"[1]": {"conditions": "Clinch River water, final concentration 10 μM, 6-minute exposure (FIG. 3)"}},
  "data": [
    {"smiles": "CN(C)C(=O)Nc1ccc(Cl)c(Cl)c1", "values": [
      {"measurement": "fluorescence of water sample", "setting": "[1]", "value": "increased considerably"},
      {"measurement": "kinetic time course of fluorescence induction curve", "setting": "[1]", "value": "dramatic change"}
    ]},
    {"smiles": "COP(=S)(OC)Oc1ccc([N+](=O)[O-])cc1", "values": [
      {"measurement": "change in the initial fluorescence (Fo) and maximum fluorescence (Fmax)", "setting": "Clinch River water as is, final concentration 18 μg/mL, 10-second actinic light pulse, vs control curve (FIG. 1)", "value": "clear change"}
    ]}
  ]
}
